Tested on: paternal UBE3A-YFP
Experiment: paternal UBE3A-YFP unsilencing, high-content imaging in mouse primary neurons (Ube3a m+/pYFP)
Assay type: cell-based
Settings: Primary neuron, 72 h, read-out: EC50 for unsilencing paternal Ube3a-YFP

## C[C@H](C(=O)Nc1cc(C2CC2)[nH]n1)c1ccc(N2CCCC2=O)cc1 [(S)-PHA533533]
  EC50: 540 nM

Source: publication PMC11231141, “Ube3a unsilencer for the potential treatment of Angelman syndrome” (Nature Communications, 2024)
